For this series, the system named is MDCK cell membrane. The experiment in a line: MDCK assay double-well experiment: permeability across in vitro BBB model. As to conditions: reference compounds, concentration not given.

As to `O/N=C/c1cc[n+](COC[n+]2ccc(/C=N/O)cc2)cc1`, the “CNS (+/−)” value is given as “CNS−”.
7-methoxytacrine: the “CNS (+/−)” value is “CNS+” and the “Experimental estimation of BBB Penetration Papp ± SD” value is on record as 17.19 ± 3.56 ×10^−6 cm s^−1.
